Results: article PMC7026418, “The kinase polypharmacology landscape of clinical PARP inhibitors” (Scientific Reports, 2020)
Where two headings read alike, the source gives them in different places.

Protein sequences, listed by entry. Tags and fused reporters are not part of them.
UniProt Q9Y463, whole entry: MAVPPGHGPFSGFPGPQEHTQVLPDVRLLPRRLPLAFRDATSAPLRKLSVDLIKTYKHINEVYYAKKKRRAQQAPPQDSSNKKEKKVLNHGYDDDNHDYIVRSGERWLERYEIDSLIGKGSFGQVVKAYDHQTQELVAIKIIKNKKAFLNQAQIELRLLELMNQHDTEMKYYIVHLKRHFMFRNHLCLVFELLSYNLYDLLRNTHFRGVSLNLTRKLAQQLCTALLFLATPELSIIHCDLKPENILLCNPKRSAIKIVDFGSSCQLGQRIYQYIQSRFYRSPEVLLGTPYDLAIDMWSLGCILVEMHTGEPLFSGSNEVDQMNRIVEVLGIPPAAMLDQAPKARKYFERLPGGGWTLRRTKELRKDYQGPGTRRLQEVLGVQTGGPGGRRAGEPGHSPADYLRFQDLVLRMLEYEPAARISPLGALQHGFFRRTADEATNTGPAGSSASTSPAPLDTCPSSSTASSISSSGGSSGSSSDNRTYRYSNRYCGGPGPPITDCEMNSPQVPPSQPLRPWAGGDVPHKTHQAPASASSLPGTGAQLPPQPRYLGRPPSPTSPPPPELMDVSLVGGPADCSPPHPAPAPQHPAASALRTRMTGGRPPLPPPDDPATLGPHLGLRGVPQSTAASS

Key:
Test in all cases: biochemical
[1] = biological target: T1, DYRK1A (Homo sapiens, UniProt Q13627); conditions: read-out: Niraparib
[2] = biological target: T1, DYRK1A; conditions: read-out: Rucaparib
[3] = biological target: DYRK1B (Homo sapiens, UniProt Q9Y463); conditions: read-out: Rucaparib

Row | inhibition at 1 µM [2] [%] | inhibition at 1 µM [3] [%] | Structure (SMILES) | inhibition at 1 µM [1] [%]
1 |  |  | NC(=O)c1cccc2cn(-c3ccc([C@@H]4CCCNC4)cc3)nc12 [Niraparib] | 76
2 | 49 | 53 | CNCc1ccc(-c2[nH]c3cc(F)cc4c3c2CCNC4=O)cc1 [Rucaparib] | 
